Drawing on article PMC7723054, this text covers binding signal for 23 molecules.

The other results are listed elsewhere or left out.

Experiment in all cases: FOREST: bead pull-down of RNA structure library v1, barcode microarray; U1A/LIN28A: 20 mM HEPES pH 7.5, 80 mM KCl, 20 mM NaCl, 10% glycerol, 2 mM DTT, 0.1 ug/uL BSA, 4 C; BG4/CIRBP/DHX36: 10 mM Tris-HCl pH 7.5, 100 mM KCl (or LiCl),; high values mean tight binding
One experiment concerns the target U1A (Homo sapiens, UniProt P09012).
For the next experiment, the target named is T1, LIN28A (human?, UniProt Q9H9Z2 1-209).
T1 sequence: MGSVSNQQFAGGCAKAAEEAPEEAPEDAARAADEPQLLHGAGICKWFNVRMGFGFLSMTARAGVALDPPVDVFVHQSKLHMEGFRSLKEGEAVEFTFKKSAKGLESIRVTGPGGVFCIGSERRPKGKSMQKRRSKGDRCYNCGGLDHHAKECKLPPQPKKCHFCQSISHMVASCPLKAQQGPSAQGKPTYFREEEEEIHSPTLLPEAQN

The next experiment addresses T2, CIRBP (Homo sapiens, UniProt Q14011 1-172).
T2 sequence: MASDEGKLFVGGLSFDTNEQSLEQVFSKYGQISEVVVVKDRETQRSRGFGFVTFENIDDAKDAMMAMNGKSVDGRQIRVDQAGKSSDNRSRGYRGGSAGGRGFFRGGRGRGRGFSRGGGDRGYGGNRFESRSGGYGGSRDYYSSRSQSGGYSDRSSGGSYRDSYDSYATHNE

The target of the next experiment is T3, DHX36 (Homo sapiens, UniProt Q9H2U1 1-1008).
T3 sequence: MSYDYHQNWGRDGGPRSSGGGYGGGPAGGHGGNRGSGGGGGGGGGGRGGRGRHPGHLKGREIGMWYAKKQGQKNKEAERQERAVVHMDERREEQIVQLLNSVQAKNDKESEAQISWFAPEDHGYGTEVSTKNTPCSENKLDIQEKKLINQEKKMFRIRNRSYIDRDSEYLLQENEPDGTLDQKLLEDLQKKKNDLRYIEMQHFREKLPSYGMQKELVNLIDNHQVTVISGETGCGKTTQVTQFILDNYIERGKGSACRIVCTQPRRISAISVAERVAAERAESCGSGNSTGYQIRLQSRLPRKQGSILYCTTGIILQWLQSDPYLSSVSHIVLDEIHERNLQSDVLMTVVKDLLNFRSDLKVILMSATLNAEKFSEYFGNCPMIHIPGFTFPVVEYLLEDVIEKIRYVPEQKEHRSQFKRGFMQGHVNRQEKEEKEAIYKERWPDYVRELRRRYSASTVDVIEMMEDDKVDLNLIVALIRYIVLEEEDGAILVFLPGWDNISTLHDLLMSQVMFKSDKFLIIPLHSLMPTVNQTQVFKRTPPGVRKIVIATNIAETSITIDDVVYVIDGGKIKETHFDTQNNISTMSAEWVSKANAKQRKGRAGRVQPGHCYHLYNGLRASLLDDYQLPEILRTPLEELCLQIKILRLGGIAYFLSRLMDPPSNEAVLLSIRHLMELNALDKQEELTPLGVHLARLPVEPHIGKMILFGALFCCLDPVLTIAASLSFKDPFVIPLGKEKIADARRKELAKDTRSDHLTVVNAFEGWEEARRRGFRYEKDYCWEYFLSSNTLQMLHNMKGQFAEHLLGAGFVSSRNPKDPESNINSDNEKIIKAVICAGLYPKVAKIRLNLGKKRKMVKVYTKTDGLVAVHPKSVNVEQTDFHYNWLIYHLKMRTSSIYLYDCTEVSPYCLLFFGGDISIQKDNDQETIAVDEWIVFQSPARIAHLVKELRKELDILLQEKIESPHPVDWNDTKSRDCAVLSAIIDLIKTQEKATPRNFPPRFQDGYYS

B1: hsa-mir-6865 (structured_RNA)
RNA: GGGAAACGUGCACAACUUAUAACUUGGCGGUGUACGAAGUUUCAGCACUUCAGAUGCUUCAUGACAGCUGAAGCUUCGUGCAC
Regarding B1, the binding signal with U1A is 1.21 z-score; in the experiment with LIN28A it was -0.167 z-score; in the experiment with CIRBP, -0.535 z-score; with DHX36 it was -0.925 z-score.

B2: hsa-mir-8066 (structured_RNA)
RNA: GGGAAGUCAACACUGCGGCCCCUAUACGGGUGUACGAAGUUUCAGCAUUGUUGCCUCUGCAUGUUACAAUGCUGAAGCUUCGUGCAC
As to B2, the binding signal with U1A is 1.17 z-score; with LIN28A, 0.125 z-score; in the experiment with CIRBP it was 0.228 z-score; in the experiment with DHX36, -1.08 z-score.

B3: hsa-mir-1324 (structured_RNA)
RNA: GGGACUCUCGAUCCAGGCACAUGGAUUCGGUGUACGAAGUUUCAGCGUCCUGCCCUCACUGGGAACCCCCUUCCCUCUGGGUACCAGGCUGAAGCUUCGUGCAC
With B3, the binding signal with U1A is 1.19 z-score; in the experiment with LIN28A it was -1.68 z-score; with CIRBP, -1.34 z-score; with DHX36 it was 0.363 z-score.

B4: hsa-mir-330 (structured_RNA)
RNA: GGGACUGAUACCGCAGCUAGGCCAUCAAGGUGUACGAAGUUUCAGCAGGCUCUGCAAGAUCAACCGAGCAGCUGAAGCUUCGUGCAC
Take B4: the binding signal in the experiment with U1A worked out at 1.14 z-score; with LIN28A, 1.17 z-score; in the experiment with CIRBP, 0.515 z-score; with DHX36, 0.872 z-score.

B5: hsa-mir-7844 (structured_RNA)
RNA: GGGAGGUCACGUAGGACCCUGUCUCGAAGGUGUACGAAGUUUCAGCUGUAAAUAACUACAAUUCUCUUAACUCCGUAGCAGUUGCGCUGAAGCUUCGUGCAC
As to B5, the binding signal in the experiment with U1A was 1.14 z-score; in the experiment with LIN28A it was -0.812 z-score; with CIRBP, -2.05 z-score; with DHX36, -1.49 z-score.

B6: hsa-mir-3914-2 (structured_RNA)
RNA: GGGACACAGGAACGGAACAGUGUAGAGAGGUGUACGAAGUUUCAGCCCUUCUACCAAGUUAAGCAUACUCAUUAGAAGGGCUGAAGCUUCGUGCAC
As for B6, the binding signal is 1.19 z-score with U1A, 0.148 z-score with LIN28A, -0.132 z-score with CIRBP and -0.521 z-score in the experiment with DHX36.

B7: r(CAG)16: (structured_RNA)
RNA: GGGAGCCCAAGGUGAUGCUCUGGUUCAUGGUGUACGAAGUUUCAGCCAGCAGCAGCAGCAGCAGCAGCAGCAGCAGCAGCAGCAGCAGCAGCAGGCUGAAGCUUCGUGCAC
As to B7, the binding signal in the experiment with U1A worked out at 1.2 z-score; with LIN28A it was 0.585 z-score; with CIRBP, 0.788 z-score; with DHX36, 0.727 z-score.

B8: hsa-mir-3126 (structured_RNA)
RNA: GGGAAAGUCAGCAUGUGAAAUGCAGGGUGGUGUACGAAGUUUCAGCGAAGCACUGGUUAUGAUUUGCAUCGCUGAAGCUUCGUGCAC
Take B8: the binding signal was 1.21 z-score with U1A, 0.118 z-score with LIN28A, -0.253 z-score with CIRBP and -0.303 z-score with DHX36.

B9: hsa-mir-1273a (structured_RNA)
RNA: GGGACAGGCAUUCAUUCUCAGUGGCGAGGGUGUACGAAGUUUCAGCACCCGGGUGGUGGAGGUUGCAGUGAGCCAAGAUUGCGCCACUGCACUCCAGCCUGGGCGCUGAAGCUUCGUGCAC
For the molecule B9, the binding signal is 1.16 z-score in the experiment with U1A, 0.538 z-score with LIN28A, -0.304 z-score in the experiment with CIRBP and 0.881 z-score with DHX36.

B10: hsa-mir-887 (structured_RNA)
RNA: GGGAAGCAGGAAUCUCAUUCGUGUAUGGGGUGUACGAAGUUUCAGCAGACUCUGGAUUUUACACUUGGAGUGGCUGAAGCUUCGUGCAC
Regarding B10, the binding signal with U1A was 1.17 z-score; with LIN28A, 0.0366 z-score; with CIRBP it was 0.863 z-score; with DHX36, -0.141 z-score.

B11: hsa-mir-6726 (structured_RNA)
RNA: GGGAAGGGGUCAAACGUGGACAAAACUUGGUGUACGAAGUUUCAGCUCUGCAGGUUCGCACUGAUGCCUGCUCGGCUGAAGCUUCGUGCAC
On to B11, for which the binding signal was 1.2 z-score with U1A, 0.552 z-score in the experiment with LIN28A, 1.28 z-score with CIRBP and 0.584 z-score with DHX36.

B12: hsa-mir-103a-2 (structured_RNA)
RNA: GGGACCGACCAUCCACUCACAUACACCGGGUGUACGAAGUUUCAGCUGCCUUGUAGCAUUCAGGUCAAGCAGCUGAAGCUUCGUGCAC
Regarding B12, the binding signal with U1A is 1.14 z-score; with LIN28A, 0.147 z-score; with CIRBP it was 0.424 z-score; in the experiment with DHX36 it was -1.35 z-score.

B13: hsa-mir-5094 (structured_RNA)
RNA: GGGAAGACGACACGUCACUUCACACCGGGGUGUACGAAGUUUCAGCACCUAACACACUGCCUUUUAUGUGGUAGGUGCUGAAGCUUCGUGCAC
With B13, the binding signal in the experiment with U1A is 1.12 z-score; with LIN28A, -0.806 z-score; in the experiment with CIRBP, 0.62 z-score; with DHX36, -0.157 z-score.

B14: hsa-mir-151b (structured_RNA)
RNA: GGGAAUUCCUGCCAGUGCAAAAUGCAAUGGUGUACGAAGUUUCAGCCGAGACACAGAAACAGACACCUGCCCUCGAGCUGAAGCUUCGUGCAC
As for B14, the binding signal with U1A was 1.2 z-score; in the experiment with LIN28A, -0.295 z-score; with CIRBP, -0.958 z-score; with DHX36 it was -0.617 z-score.

B15: hsa-mir-1295b (structured_RNA)
RNA: GGGAAUGCUAAUGACGAGUUCCGGCGAAGGUGUACGAAGUUUCAGCUAAUCACAGGCCACAUUUCUGAAUAGCUGAAGCUUCGUGCAC
In the case of B15, the binding signal in the experiment with U1A turned out to be 1.16 z-score; with LIN28A it was 0.876 z-score; with CIRBP, 1.53 z-score; in the experiment with DHX36, 0.92 z-score.

B16: hsa-mir-6845 (structured_RNA)
RNA: GGGACGUGGGUACAACUCACGACUCCCUGGUGUACGAAGUUUCAGCGAGCCCUUGCACACCACCAGCCUCGCUGAAGCUUCGUGCAC
Take B16: the binding signal with U1A is 6.27 z-score; with LIN28A it was 0.0877 z-score; with CIRBP, 0.274 z-score; with DHX36, -0.134 z-score.

B17: PARIS_ID37 (structured_RNA)
RNA: GGGAAAAGCACGCGGACCUUAUACAUGUGGUGUACGAAGUUUCAGCUAGGACAAUACAGACAGUAACUCCUAGCUGAAGCUUCGUGCAC
As for B17, the binding signal is 1.19 z-score with U1A, -0.776 z-score with LIN28A, -1.13 z-score with CIRBP and 0.423 z-score in the experiment with DHX36.

B18: hsa-mir-1257 (structured_RNA)
RNA: GGGACGGUACCAGUUGAGGGAUAUUAAUGGUGUACGAAGUUUCAGCGACCCCCAUGCACCCCUGUGGGCCCCUGGCAUCGCUGAAGCUUCGUGCAC
Take B18: the binding signal with U1A is 2.51 z-score; with LIN28A it was -0.42 z-score; with CIRBP, -0.601 z-score; in the experiment with DHX36 it was 0.345 z-score.

B19: hsa-mir-7978 (structured_RNA)
RNA: GGGAAGAGGCUAGACAACUGAGACUAGGGGUGUACGAAGUUUCAGCCUCAAGUCCUCUAUUUCUUUGAAGCUGAAGCUUCGUGCAC
As to B19, the binding signal is 1.16 z-score with U1A, -0.0691 z-score in the experiment with LIN28A, 1.35 z-score with CIRBP and 1.04 z-score with DHX36.

B20: hsa-mir-3131 (structured_RNA)
RNA: GGGAAGUGACGUGACCAAUACCACGCCAGGUGUACGAAGUUUCAGCCCUUUCCCCUCAGACCAAGGGCUGAAGCUUCGUGCAC
In the case of B20, the binding signal with U1A was 1.19 z-score; with LIN28A, -0.932 z-score; with CIRBP it was -1.1 z-score; with DHX36, 0.479 z-score.

B21: hsa-mir-1206 (structured_RNA)
RNA: GGGAUAUCAGUCAGAAGGGCGUCUCCCUGGUGUACGAAGUUUCAGCAAGCUCUUGCAGUAGGUUUGCUGAAGCUUCGUGCAC
With B21, the binding signal with U1A was 1.21 z-score; with LIN28A, 0.4 z-score; in the experiment with CIRBP it was -0.363 z-score; with DHX36 it was 1.08 z-score.

B22: hsa-mir-711 (structured_RNA)
RNA: GGGACGUUAGGUGGACACGCAUUAUGUAGGUGUACGAAGUUUCAGCGCUGCAGGCAAAGCUGGGGGCUGAAGCUUCGUGCAC
For the molecule B22, the binding signal was 1.12 z-score in the experiment with U1A, 0.229 z-score with LIN28A, 0.333 z-score with CIRBP and -0.053 z-score in the experiment with DHX36.

B23: hsa-mir-3198-2 (structured_RNA)
RNA: GGGAAGACCUACGUCAGGAUCUCGAAACGGUGUACGAAGUUUCAGCAGCAGUACCAGAUGGUUCUGUGGGCUGAAGCUUCGUGCAC
For the molecule B23, the binding signal with U1A was 1.17 z-score; in the experiment with LIN28A, -1.51 z-score; with CIRBP, 0.105 z-score; with DHX36 it was -0.98 z-score.
